Experimental data taken from patent US9784740B2 (priority 2013, dated 2017).
Where “and” joins values, the source holds several entries; their conditions need not be identical. Equal values may be shown once.

By UniProt entry, the sequences of proteins in these tests, tags left out.
UniProt P33535, whole entry: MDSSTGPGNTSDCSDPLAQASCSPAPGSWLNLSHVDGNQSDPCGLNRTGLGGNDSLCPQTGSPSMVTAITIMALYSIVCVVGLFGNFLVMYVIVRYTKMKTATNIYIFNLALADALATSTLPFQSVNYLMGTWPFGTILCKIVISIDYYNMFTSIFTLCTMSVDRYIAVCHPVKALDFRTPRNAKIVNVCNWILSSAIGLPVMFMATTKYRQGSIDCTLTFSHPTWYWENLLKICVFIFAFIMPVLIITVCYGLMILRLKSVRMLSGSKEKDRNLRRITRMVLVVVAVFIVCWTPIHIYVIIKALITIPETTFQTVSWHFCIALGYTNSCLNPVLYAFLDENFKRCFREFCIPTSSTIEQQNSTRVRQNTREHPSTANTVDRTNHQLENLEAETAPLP

What was measured:
[1] = biological target: T1, mu-opioid receptor (C6mu membranes) (Rattus norvegicus, UniProt P33535); assay: DAMGO competition binding with [3H]diprenorphine in C6mu membranes; conditions: 0.2-0.3 nM [3H]diprenorphine, 100 mM NaCl, 10 uM GTPγS, vehicle
T1 construct: expressed in transfected cells; host or cells: C6 glioma cells (membranes)

[2] = biological target: T1, mu-opioid receptor (C6mu membranes); assay: [35S]GTPγS binding in C6mu cell membranes; type: biochemical; conditions: DAMGO EC50 to stimulate [35S]GTPγS binding, alone, vehicle, mean (95% CI)

C[C@@H](NC(=O)[C@@H](N)Cc1ccc(O)cc1)C(=O)NCC(=O)N(C)[C@@H](Cc1ccccc1)C(=O)NCCO [DAMGO, reference compound]
Ki [1]: 340 nM | EC50 [2]: 222 nM and 224 nM
